# Measured values published in PubChem BioAssay AID602363 (Broad Institute, 2012).
# About 450 (0.13%) of roughly 350,000 compounds were called active. This is one part of a sample in which actives are shown more often than they occur.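 How the source made its calls: active means replicate mean at a twofold rise or more (about +100% in these data); inactive means the rest.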
# Test: UUG initiation codon usage in yeast – whole organism, S. cerevisiae, single point, plate reader, primary screen (AID 602363);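 further: firefly luciferase made from a UUG start codon reports start codon fidelity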
# Conditions: S. cerevisiae UUG-firefly luciferase reporter, luminescence/redox ratio; at 18.7 µM; stronger effect = higher value
row,Compound,activity score
1,C[C@@H]1CCCCO[C@H](CN(C)C(=O)Cc2ccccc2)[C@@H](C)CN([C@@H](C)CO)C(=O)c2cc(NC(=O)c3ccccc3)ccc2O1,0.371% (inactive)
2,COc1ccc(CCN2C(=O)[C@@]3(Cc4ccccc42)c2ccccc2C(=O)N(Cc2ccccc2C(F)(F)F)[C@H]3c2ccc(CO)cc2)cc1,153% (active)
3,COCCCNC(=O)[C@@]1(C)c2ccccc2C(=O)N(Cc2ccc(OC(F)(F)F)cc2)[C@H]1c1ccc(CO)cc1,2.89% (inactive)
4,CC(C)N1C(=O)[C@@]2(Cc3ccccc31)c1ccccc1C(=O)N(C1CCCCC1)[C@H]2c1ccc(CO)cc1,69% (inactive)
5,COc1ccccc1NC(=O)N(C)C[C@@H]1Oc2ncc(Br)cc2C(=O)N([C@@H](C)CO)C[C@@H]1C,19.9% (inactive)
6,CCOC(=O)C(=CNc1cccc(C)n1)C(=O)OCC,-12% (inactive)
7,CCOC(=O)C(=Cc1ccccc1OC)C(=O)OCC,448% (active)
8,CCOC(=O)C(=Cc1ccccc1)C(=O)c1ccccc1,-13% (inactive)
9,COc1ccc(-c2cnc3c(c2)C(=O)N([C@@H](C)CO)C[C@@H](C)[C@H](CN(C)C)O3)cc1,-4.93% (inactive)
10,N#Cc1cccc(-c2ccc3c(c2)[C@H]2[C@H](CCN2S(=O)(=O)c2ccc(F)cc2)[C@@H](CO)N3)c1,-15.3% (inactive)
11,C[C@H]1CN([C@@H](C)CO)C(=O)Cc2cc(NC(=O)Nc3ccccc3)ccc2O[C@H]1CN(C)S(=O)(=O)c1cn(C)cn1,2.53% (inactive)
12,C[C@H](CO)N1C[C@H](C)[C@@H](CN(C)Cc2cccnc2)Oc2cc(C#CC3CC3)ccc2S1(=O)=O,8.44% (inactive)
13,COc1cccc(C(=O)Nc2ccc3c(c2)OC[C@H](C)N(C(C)=O)C[C@@H](C)[C@@H](OC)CN(C)C3=O)c1,43.4% (inactive)
14,C/C=C/c1ccc2c(c1)O[C@@H](CN(C)C(=O)Cc1ccccc1)[C@H](C)CN([C@@H](C)CO)S2(=O)=O,58.8% (inactive)
15,CC(C)NC(=O)N(C)C[C@H]1Oc2ccc(NC(=O)CCC(F)(F)F)cc2CC(=O)N([C@@H](C)CO)C[C@@H]1C,-4.49% (inactive)
16,CCCC(=O)Nc1ccc2c(c1)C(=O)N(C)[C@H]1CC[C@@H](CC(=O)NCC(F)(F)F)O[C@@H]1CO2,-2.34% (inactive)
17,CO[C@@H]1CN(C)C(=O)c2cc(NC(=O)C3CCCC3)ccc2OC[C@H](C)N(C)C[C@@H]1C,3.06% (inactive)
18,Cc1noc(C)c1NC(=O)Nc1ccc2c(c1)CC(=O)N([C@@H](C)CO)C[C@@H](C)[C@@H](CN(C)C(=O)NC(C)C)O2,-0.961% (inactive)
